The target in this experiment is B. cereus 5/B/6 metallo-β-lactamase (Bacillus cereus, UniProt P14488). As to the method:
Assay of the purified B. cereus 5/B/6 metallo-β-lactamase and B. cereus 569/H/9 β-lactamase I. Metallo-β-lactamase activity assays using cephalosporin C as substrate were determined as previously reported (Myers and Shaw, 1989). The cephalosporin C absorbance maximum at 260 nm was monitored as a function of time (Davies et al., 1974). One unit of activity is generally defined as the amount of enzyme required to catalyze the hydrolysis of about 1 μmol of β-lactam substrate (cephalosporin C) per minute at 30° C. at pH 7.0. […] The assays were carried out at 30° C. in a 0.1 cm path length quartz cell and the total assay volume was 250 μL.
Reversible inhibition studies for metallo-β-lactamase. To test for reversible inhibition, metallo-β-lactamase was incubated with various concentrations of the possible inhibitors in 50 mM MOPS buffer, pH 7.0. The enzyme activity remaining was determined (Myers and Shaw, 1989).
Various assays were conducted with the 30-mer RNA in the presence of metallo-β-lactamase to determine its inhibition values (IC50, Ki, and Ki′). […]
30-mer RNA. The IC50 value for the 30-mer RNA was determined by measuring the rate of enzymatic hydrolysis of cephalosporin C with different amounts of the 30-mer RNA.

The text below walks through data of patent US7989613B2, “Inhibition of metallo-β-lactamase by RNA” (priority 2005, dated 2011).

5′-GGGUCUGGCCC-3′ [11-mer RNA]: under “read-out: IC50 for B. cereus 5/B/6 metallo-β-lactamase, 4.3 mM cephalosporin C, 50 mM MOPS pH 7.0, no added Zn2+”, the IC50 turned out to be 430 nM. Also, where the note is “stated in words”, the “IC50 / inhibition of metallo-β-lactamase, range in words” value is listed as “nanomolar range”.
